Experiment [1] concerns the target His-GST-PARP7 (Homo sapiens (Human), UniProt Q7Z3E1). Briefly: PARP7 biochemical assay.
In experiment [2] the target is PARP2 (Homo sapiens (Human), UniProt Q9UGN5). The experiment can be described thus: PARP2 biochemical assay.

Amino acid sequences for entries named in this document (tags omitted). A change or cut given only in a name is not applied to a line headed by its entry.
UniProt Q7Z3E1: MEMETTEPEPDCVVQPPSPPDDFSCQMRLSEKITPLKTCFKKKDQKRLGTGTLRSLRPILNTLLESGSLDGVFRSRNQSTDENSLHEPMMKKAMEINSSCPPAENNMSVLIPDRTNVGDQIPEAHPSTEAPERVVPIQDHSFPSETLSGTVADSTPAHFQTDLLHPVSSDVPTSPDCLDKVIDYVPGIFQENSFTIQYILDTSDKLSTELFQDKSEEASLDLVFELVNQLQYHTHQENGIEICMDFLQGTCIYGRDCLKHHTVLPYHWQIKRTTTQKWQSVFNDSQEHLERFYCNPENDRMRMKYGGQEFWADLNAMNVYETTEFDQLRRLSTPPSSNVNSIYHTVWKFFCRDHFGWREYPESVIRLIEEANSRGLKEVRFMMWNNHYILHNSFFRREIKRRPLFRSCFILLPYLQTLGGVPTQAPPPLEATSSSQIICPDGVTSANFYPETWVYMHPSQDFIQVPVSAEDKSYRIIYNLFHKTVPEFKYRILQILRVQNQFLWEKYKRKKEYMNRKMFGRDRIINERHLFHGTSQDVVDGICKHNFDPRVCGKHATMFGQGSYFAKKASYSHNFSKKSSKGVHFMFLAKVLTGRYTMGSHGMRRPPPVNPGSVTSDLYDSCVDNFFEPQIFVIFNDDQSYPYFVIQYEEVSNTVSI
UniProt Q9UGN5: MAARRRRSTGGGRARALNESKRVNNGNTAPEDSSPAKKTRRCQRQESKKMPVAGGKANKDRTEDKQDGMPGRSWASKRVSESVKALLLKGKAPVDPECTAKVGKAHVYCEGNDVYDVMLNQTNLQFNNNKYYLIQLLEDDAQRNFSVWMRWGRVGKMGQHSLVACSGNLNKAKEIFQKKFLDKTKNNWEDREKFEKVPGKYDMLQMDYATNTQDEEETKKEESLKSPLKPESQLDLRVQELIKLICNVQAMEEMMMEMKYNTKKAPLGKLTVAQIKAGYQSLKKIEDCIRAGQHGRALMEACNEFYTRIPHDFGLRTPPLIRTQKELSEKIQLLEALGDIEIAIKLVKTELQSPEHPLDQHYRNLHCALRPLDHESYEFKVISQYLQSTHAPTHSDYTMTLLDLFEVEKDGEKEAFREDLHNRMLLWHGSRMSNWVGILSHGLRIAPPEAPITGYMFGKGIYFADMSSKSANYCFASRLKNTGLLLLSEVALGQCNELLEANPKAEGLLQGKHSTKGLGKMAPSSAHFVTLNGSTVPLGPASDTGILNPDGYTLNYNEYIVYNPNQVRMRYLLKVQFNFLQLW

Where two headings read alike, the source gives them in different places.

As to `N#Cc1ccc(N2CCN(C(=O)c3cccc(Cc4n[nH]c(=O)c5ccc(Oc6ccccc6)cc45)c3)CC2)nc1` [Example 2, 6-(4-(3-((4-Oxo-7-phenoxy-3,4-dihydrophthalazin-1-yl)methyl)benzoyl)piperazin-1-yl)nicotinonitrile], the half-maximal inhibitory concentration (IC50) in experiment [1] was less than 50 nM.
On the same count and under the same terms, as for `N#Cc1ccc(N2CCN(C(=O)c3cccc(Cc4n[nH]c(=O)c5ccc(Cl)cc45)c3)CC2)nc1` [Example 5, 6-(4-(3-((7-Chloro-4-oxo-3,4-dihydrophthalazin-1-yl)methyl)benzoyl)piperazin-1-yl)nicotinonitrile], the figure is less than 50 nM; as for `N#Cc1ccc(N2CCN(C(=O)c3cccc(Cc4n[nH]c(=O)c5ccc(F)cc45)c3)CC2)nc1` [Example 6, 6-(4-(3-((7-Fluoro-4-oxo-3,4-dihydrophthalazin-1-yl)methyl)benzoyl)piperazin-1-yl)nicotinonitrile], less than 50 nM.
Take `N#Cc1ccc(N2CCN(C(=O)c3cc(Cc4n[nH]c(=O)c5ccc(OCC6CC6)cc45)ccc3F)CC2)nc1` [Example 7, 6-(4-(5-((7-(Cyclopropylmethoxy)-4-oxo-3,4-dihydrophthalazin-1-yl)methyl)-2-fluorobenzoyl)piperazin-1-yl)nicotinonitrile]: the IC50 in experiment [2] was 100 to 500 nM; in experiment [1], less than 50 nM.
For `CN(C)c1ccc2c(=O)[nH]nc(Cc3ccc(F)c(C(=O)N4CCN(c5ccc(C#N)cn5)CC4)c3)c2c1` [Example 28, 6-(4-(5-((7-(Dimethylamino)-4-oxo-3,4-dihydrophthalazin-1-yl)methyl)-2-fluorobenzoyl)piperazin-1-yl)nicotinonitrile], the half-maximal inhibitory concentration (IC50) in experiment [2] (read-out: PARP2 IC50) was 100 to 500 nM; in experiment [1], less than 50 nM.

(Values after patent US20260055079A1, “PHTHALAZINONE COMPOUNDS AS PARP7 INHIBITORS” (AZKARRA THERAPEUTICS, INC., priority 2022, published 2026).)
